The values below come from ChEMBL document CHEMBL5316271, “Microtubule-Stabilizing 1,2,4-Triazolo[1,5-a]pyrimidines as Candidate Therapeutics for Neurodegenerative Disease: Matched Molecular Pair Analyses and Computational Studies Reveal New Structure-Activity Insights” (J Med Chem, 2023).

The chains behind the UniProt entries cited, without tags or fusion partners. Where a name states a change or a piece, a line headed by the entry shows the natural chain unless it says otherwise.
UniProt P68371: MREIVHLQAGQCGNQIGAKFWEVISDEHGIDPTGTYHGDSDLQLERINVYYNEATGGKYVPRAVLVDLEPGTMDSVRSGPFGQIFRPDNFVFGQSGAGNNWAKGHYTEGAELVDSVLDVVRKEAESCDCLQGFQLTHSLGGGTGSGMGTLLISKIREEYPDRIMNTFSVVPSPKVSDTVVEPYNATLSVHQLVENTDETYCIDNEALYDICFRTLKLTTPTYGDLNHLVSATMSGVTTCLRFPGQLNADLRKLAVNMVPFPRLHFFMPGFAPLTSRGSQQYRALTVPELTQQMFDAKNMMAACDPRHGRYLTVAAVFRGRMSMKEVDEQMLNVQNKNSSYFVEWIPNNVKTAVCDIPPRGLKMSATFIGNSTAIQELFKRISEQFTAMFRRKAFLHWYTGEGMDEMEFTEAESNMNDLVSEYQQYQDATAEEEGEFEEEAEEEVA
UniProt Q9H4B7: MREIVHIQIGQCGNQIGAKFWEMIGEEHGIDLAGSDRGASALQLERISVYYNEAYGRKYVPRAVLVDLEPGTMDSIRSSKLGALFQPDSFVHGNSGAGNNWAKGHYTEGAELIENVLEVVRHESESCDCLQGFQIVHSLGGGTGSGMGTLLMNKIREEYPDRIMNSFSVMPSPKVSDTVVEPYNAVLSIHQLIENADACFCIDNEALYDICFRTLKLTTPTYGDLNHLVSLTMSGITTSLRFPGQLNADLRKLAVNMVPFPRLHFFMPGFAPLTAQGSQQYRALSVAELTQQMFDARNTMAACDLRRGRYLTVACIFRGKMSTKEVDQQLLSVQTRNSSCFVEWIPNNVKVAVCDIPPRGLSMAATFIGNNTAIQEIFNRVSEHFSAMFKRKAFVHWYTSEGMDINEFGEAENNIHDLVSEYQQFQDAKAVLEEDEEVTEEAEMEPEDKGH
UniProt P0DPH7: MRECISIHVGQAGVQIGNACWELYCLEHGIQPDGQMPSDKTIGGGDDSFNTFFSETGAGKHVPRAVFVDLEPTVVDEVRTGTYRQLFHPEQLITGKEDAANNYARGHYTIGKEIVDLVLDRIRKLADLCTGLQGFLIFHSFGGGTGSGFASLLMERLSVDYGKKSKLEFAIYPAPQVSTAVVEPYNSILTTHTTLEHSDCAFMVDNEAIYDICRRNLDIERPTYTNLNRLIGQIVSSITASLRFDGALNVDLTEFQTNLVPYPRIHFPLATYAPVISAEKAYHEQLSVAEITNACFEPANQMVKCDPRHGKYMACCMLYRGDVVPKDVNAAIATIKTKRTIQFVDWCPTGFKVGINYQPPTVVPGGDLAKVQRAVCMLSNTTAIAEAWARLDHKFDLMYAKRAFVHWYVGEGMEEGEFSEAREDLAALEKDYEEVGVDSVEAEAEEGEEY
UniProt P68366: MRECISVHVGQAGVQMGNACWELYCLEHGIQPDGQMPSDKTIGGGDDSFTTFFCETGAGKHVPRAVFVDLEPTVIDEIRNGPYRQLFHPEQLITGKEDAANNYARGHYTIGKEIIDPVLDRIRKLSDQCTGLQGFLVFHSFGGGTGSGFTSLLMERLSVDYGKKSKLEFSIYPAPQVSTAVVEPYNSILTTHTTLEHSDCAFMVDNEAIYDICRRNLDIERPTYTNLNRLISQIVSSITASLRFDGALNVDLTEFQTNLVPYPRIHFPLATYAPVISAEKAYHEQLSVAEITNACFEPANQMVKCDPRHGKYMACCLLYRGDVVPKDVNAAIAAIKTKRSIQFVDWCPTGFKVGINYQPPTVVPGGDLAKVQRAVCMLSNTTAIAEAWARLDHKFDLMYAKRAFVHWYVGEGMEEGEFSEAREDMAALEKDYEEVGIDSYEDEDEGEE
UniProt Q13509: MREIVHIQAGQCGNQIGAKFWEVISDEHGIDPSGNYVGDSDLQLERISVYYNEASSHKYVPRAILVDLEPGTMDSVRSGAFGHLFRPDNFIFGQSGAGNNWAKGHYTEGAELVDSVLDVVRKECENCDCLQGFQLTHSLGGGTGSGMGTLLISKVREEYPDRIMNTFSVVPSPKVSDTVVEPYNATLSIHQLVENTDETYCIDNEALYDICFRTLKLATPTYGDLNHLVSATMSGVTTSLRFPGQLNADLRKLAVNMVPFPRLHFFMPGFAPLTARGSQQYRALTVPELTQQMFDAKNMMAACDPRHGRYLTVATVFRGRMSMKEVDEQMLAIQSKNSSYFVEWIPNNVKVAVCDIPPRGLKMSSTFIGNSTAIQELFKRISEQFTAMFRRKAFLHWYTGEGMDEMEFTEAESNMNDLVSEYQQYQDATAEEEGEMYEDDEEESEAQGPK
UniProt Q71U36: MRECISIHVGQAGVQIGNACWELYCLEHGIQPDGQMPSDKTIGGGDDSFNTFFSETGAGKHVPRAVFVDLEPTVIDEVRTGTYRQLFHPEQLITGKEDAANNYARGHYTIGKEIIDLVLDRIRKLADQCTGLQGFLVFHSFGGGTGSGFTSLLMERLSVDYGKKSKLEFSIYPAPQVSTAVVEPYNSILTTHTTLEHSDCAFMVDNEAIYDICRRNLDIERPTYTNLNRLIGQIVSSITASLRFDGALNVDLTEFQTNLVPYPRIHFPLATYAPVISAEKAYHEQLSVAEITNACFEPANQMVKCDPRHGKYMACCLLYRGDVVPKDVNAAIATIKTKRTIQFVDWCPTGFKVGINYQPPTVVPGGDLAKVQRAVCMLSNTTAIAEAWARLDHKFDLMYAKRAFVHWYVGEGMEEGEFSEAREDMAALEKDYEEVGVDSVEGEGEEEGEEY
UniProt P04350: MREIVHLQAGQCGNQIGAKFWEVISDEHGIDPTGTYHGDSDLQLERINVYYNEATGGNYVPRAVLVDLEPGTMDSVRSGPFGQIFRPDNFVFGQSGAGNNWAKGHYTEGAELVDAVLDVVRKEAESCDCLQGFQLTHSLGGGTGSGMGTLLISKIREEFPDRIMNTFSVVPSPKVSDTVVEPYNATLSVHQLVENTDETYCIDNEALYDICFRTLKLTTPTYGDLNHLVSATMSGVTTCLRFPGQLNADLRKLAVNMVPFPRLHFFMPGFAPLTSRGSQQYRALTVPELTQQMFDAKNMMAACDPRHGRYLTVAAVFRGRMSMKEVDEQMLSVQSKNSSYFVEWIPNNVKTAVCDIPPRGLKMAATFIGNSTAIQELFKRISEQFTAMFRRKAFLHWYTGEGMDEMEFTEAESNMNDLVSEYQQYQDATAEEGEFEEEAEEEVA
UniProt Q3ZCM7: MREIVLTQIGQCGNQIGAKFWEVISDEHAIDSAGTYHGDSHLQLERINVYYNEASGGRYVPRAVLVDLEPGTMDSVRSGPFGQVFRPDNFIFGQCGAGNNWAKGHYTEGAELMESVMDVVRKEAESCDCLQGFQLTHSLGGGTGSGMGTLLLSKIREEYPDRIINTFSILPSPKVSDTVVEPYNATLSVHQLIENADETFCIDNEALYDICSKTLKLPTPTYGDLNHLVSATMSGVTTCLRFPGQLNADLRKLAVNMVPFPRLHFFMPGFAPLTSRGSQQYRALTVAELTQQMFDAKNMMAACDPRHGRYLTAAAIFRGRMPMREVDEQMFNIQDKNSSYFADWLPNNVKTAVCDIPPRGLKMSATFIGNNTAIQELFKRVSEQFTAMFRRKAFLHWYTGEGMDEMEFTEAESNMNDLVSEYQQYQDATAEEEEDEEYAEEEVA
UniProt P07437: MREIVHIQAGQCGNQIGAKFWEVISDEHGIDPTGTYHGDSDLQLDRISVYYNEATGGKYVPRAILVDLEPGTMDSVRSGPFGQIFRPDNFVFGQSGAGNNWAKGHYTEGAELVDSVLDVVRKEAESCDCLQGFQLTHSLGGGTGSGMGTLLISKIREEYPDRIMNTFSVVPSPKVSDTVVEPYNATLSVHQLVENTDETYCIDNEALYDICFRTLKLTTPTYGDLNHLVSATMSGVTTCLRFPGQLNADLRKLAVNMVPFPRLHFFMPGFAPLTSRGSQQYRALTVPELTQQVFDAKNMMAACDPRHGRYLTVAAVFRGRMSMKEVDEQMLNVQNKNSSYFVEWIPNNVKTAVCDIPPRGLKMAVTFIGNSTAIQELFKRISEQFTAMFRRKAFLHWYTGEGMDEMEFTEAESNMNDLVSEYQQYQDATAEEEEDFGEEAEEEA
UniProt P68363: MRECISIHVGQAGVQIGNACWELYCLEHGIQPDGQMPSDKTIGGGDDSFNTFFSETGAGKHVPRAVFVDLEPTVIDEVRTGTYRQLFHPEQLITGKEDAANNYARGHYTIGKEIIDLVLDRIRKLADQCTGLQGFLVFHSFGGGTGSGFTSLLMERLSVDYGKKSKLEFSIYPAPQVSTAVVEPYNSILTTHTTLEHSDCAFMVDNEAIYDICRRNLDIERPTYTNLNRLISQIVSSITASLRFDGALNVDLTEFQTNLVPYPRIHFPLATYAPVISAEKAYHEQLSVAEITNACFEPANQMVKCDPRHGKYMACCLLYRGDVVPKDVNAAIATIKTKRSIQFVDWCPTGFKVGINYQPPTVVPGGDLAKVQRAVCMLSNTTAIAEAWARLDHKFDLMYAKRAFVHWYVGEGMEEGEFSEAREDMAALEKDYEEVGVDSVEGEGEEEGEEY
UniProt Q6PEY2: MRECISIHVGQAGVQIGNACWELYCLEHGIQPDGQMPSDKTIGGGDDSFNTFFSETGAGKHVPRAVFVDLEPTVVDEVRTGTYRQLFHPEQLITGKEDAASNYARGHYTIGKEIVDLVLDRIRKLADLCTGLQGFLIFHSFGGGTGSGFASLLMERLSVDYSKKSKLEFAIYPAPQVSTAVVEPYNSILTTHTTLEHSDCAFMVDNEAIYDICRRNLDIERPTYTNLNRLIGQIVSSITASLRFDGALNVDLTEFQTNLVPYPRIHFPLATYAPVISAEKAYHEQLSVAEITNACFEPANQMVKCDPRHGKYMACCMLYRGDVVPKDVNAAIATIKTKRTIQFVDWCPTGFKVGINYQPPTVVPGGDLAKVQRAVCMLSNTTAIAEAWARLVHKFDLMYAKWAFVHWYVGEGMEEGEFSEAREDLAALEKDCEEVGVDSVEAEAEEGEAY
UniProt Q13885: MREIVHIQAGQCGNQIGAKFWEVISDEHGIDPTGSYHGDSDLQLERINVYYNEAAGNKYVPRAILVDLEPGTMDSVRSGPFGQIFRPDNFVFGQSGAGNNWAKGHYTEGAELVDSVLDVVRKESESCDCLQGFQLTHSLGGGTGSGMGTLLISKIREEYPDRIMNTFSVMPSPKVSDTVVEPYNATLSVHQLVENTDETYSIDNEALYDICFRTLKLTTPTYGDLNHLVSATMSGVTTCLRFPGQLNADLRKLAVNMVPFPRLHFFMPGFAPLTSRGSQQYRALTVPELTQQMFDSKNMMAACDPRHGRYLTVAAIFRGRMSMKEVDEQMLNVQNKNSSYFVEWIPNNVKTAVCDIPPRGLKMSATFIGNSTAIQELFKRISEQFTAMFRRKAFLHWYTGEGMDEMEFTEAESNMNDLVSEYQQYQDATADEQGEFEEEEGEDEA
UniProt Q9BVA1: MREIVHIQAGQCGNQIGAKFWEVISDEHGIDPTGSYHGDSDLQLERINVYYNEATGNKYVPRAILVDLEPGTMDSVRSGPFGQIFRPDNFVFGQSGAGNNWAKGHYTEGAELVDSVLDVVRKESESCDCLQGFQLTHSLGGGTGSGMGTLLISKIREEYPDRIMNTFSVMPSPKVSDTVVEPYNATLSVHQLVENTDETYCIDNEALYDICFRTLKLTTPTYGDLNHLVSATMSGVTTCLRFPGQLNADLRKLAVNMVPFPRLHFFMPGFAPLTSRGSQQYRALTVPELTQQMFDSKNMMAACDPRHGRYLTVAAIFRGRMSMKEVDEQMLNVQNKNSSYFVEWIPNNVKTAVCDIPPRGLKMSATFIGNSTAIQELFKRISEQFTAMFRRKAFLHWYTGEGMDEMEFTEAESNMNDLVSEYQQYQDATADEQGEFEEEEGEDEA
UniProt Q9BUF5: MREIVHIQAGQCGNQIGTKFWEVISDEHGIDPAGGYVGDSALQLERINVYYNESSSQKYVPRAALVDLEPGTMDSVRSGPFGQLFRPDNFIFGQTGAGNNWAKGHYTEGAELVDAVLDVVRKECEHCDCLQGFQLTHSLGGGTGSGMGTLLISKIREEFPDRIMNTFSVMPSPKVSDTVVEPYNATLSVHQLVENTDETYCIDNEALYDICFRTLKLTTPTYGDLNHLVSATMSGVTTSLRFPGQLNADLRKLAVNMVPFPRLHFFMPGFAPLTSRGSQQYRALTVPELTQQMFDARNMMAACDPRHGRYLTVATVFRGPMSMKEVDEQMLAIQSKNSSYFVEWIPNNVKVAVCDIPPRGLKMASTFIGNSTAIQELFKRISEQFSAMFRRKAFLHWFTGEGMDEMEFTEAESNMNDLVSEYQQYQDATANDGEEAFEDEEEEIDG

What all share (type): cell-based
In assay [1] the target is T1, Tubulin (Homo sapiens) (UniProt P68371+Q9H4B7+P0DPH7+P68366+Q13509+Q71U36+P04350+Q3ZCM7+P07437+P68363+Q9BQE3+Q6PEY2+Q13885+Q9BVA1+Q9BUF5). The experiment in a line: Induction of microtubule stabilization in human HEK293-A cells assessed as fold change in cellular acetylated alpha-tubulin level at 30 uM incubated for 4 hrs by ELISA relative to cevipabulin. (In general: In an ELISA, binding on a coated surface is turned into a signal by an enzyme label.)

Assay [2] addresses T1, Tubulin (Homo sapiens). The experiment in a line: Induction of microtubule stabilization in human HEK293-A cells assessed as fold change in total alpha-tubulin level reduction at 30 uM incubated for 4 hrs by ELISA relative to control.
For assay [3], the target named is T1, Tubulin (Homo sapiens). Briefly: Induction of microtubule stabilization in human HEK293-A cells assessed as fold change as increase in cellular acetylated alpha-tubulin level at 30 uM incubated for 4 hrs by ELISA relative to control.

For `C[C@H](Nc1c(-c2c(F)cc(F)cc2F)c(Cl)nc2ncnn12)C(C)(C)C`, the fold change (FC) on Tubulin (Homo sapiens) [1] stood at 0.55; at Tubulin (Homo sapiens) [2] it was 1.22; on Tubulin (Homo sapiens) [3], 4.29.
